Tested on: human red blood cells (RBCs)
Test: Hemolysis assays (HC50)
Format: cell-based
Details: polymer concentration at 50% hemolysis; 37° C., 1 hour, TBS buffer
Experimental: Assays for measuring the cytotoxic selectivity for copolymers of the present invention toward bacteria and eukaryotic cells are well known to those of skill in the art. For example, cytotoxic selectivity can be assessed by determining the hemolytic activity of the copolymers. Hemolytic activity assays are performed by measuring the degree of hemolysis of human erythrocytes following incubation in the presence of the copolymer and determining HC50 values. HC50 values represent the concentration of compound that results in 50% hemoglobin release. See, for example, Kuroda, K, and DeGrado, W. F., J. Amer. Chem. Soc. 127:4128-4129 (2005) and Liu, D., and DeGrado, W. F., J. Amer. Chem. Soc. 123:7553-7559 (2001), and references cited therein. See also Javadpour, M. M., et al., J. Med. Chem. 39:3107-3113 (1996).
Hemolysis Assays: Polymer stock solutions and control solutions were prepared by the same procedure as in antimicrobial testing. Freshly drawn human red blood cells (RBCs) were obtained by centrifuging a whole blood and removing plasma and white blood cells. […] Supernatant (30 μL) was diluted with TBS buffer (100 μL), and OD414 of the solution was measured as hemoglobin concentration. […] Percentage of hemolysis (P) was calculated from the equation: P=[OD414(polymer)−OD414(control)]/[OD414(melittin)−OD414(control)] […]

CC[C@H](C)[C@H](NC(=O)CN)C(=O)NCC(=O)N[C@@H](C)C(=O)N[C@H](C(=O)N[C@@H](CC(C)C)C(=O)N[C@@H](CCCCN)C(=O)N[C@H](C(=O)N[C@@H](CC(C)C)C(=O)N[C@H](C(=O)N[C@H](C(=O)NCC(=O)N[C@@H](CC(C)C)C(=O)N1CCC[C@H]1C(=O)N[C@@H](C)C(=O)N[C@@H](CC(C)C)C(=O)N[C@H](C(=O)N[C@@H](CO)C(=O)N[C@@H](Cc1c[nH]c2ccccc12)C(=O)N[C@H](C(=O)N[C@@H](CCCCN)C(=O)N[C@@H](CCCNC(=N)N)C(=O)N[C@@H](CCCCN)C(=O)N[C@@H](CCCNC(=N)N)C(=O)N[C@@H](CCC(N)=O)C(=O)N[C@@H](CCC(N)=O)C(N)=O)[C@@H](C)CC)[C@@H](C)CC)[C@@H](C)O)[C@@H](C)O)C(C)C)C(C)C [melittin]
HC50: 1.24 µg/mL
